Where two headings read alike, the source gives them in different places. Each block holds one binder with its values, some of them ahead of it.
How the values were obtained:
[1] = biological target: T1, Cep57N (Cep57 residues 56 to 251) (human, UniProt Q86XR8 56-251); details: both partners purified
T1 construct: Cep57, human, residues 56 to 251, with the N-terminal coiled-coil domain (NTD); also called NTD; source: E. coli Rosetta 2, purified (Ni-NTA, gel filtration in 1 M NaCl)
T1 sequence (looked up): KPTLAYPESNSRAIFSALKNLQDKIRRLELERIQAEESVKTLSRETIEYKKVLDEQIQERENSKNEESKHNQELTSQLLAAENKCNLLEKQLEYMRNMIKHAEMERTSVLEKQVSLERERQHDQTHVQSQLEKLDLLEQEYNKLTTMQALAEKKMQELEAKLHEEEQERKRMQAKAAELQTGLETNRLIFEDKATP

[2] = biological target: the molecule itself
[3] = biological target: the molecule itself; assay: SEC-SAXS; 20 mM Tris-HCl pH 8.0, 150 mM NaCl, 1 mM 2-mercaptoethanol; self-association of Cep57N in low salt

- Kd [1]: 9.1 ± 1.2 µM
- stoichiometry N [1]: 0.7 ± 0.1
B1: Cep57C (Cep57 residues 334 to 433) (domain or fragment, human, UniProt Q86XR8 334-433, looked up)
chain: KQVSSRGGKSKKLSVTPPSSNGINEELSEVLQTLQDEFGQMSFDHQQLAKLIQESPTVELKDKLECELEALVGRMEAKANQITKVRKYQAQLEKQKLEKQ
notes: Cep57, human, residues 334 to 433, with the C-terminal coiled-coil domain (CTD); It was crystallised as His-Cep57C; also called CTD; source: E. coli Rosetta 2, purified (Ni-NTA, gel filtration in 1 M NaCl)

B2: Cep57C (Cep57 residues 334 to 433) (domain or fragment, human, UniProt Q86XR8 334-433, looked up)
chain: KQVSSRGGKSKKLSVTPPSSNGINEELSEVLQTLQDEFGQMSFDHQQLAKLIQESPTVELKDKLECELEALVGRMEAKANQITKVRKYQAQLEKQKLEKQ
notes: Cep57, human, residues 334 to 433 (C-terminal coiled-coil domain); ordered residues in the crystal 354 to 428; The tag is named on the protein only for the crystal (His-Cep57C); also called CTD; C-terminal coiled-coil domain; source: E. coli Rosetta 2, purified (Ni-NTA, gel filtration in 1 M NaCl)
- stoichiometry N [2]: 2

B3: Cep57N (Cep57 residues 56 to 251) (domain or fragment, human, UniProt Q86XR8 56-251, looked up)
chain: KPTLAYPESNSRAIFSALKNLQDKIRRLELERIQAEESVKTLSRETIEYKKVLDEQIQERENSKNEESKHNQELTSQLLAAENKCNLLEKQLEYMRNMIKHAEMERTSVLEKQVSLERERQHDQTHVQSQLEKLDLLEQEYNKLTTMQALAEKKMQELEAKLHEEEQERKRMQAKAAELQTGLETNRLIFEDKATP
notes: Cep57, human, residues 56 to 251 (N-terminal coiled-coil domain); Dimer in 150 mM salt by SEC-SAXS; also called NTD; N-terminal coiled-coil domain; source: E. coli Rosetta 2, purified (Ni-NTA, gel filtration in 1 M NaCl)
- stoichiometry N [3]: 2

Source: PMC11194501 (Proceedings of the National Academy of Sciences of the …, 2024)
